Literature values in publication PMC8466755, “GPCR Pharmacological Profiling of Aaptamine from the Philippine Sponge Stylissa sp. Extends Its Therapeutic Potential for Noncommunicable Diseases” (Molecules, 2021).

The chains behind the UniProt entries cited, without tags or fusion partners.
UniProt P25106, whole entry: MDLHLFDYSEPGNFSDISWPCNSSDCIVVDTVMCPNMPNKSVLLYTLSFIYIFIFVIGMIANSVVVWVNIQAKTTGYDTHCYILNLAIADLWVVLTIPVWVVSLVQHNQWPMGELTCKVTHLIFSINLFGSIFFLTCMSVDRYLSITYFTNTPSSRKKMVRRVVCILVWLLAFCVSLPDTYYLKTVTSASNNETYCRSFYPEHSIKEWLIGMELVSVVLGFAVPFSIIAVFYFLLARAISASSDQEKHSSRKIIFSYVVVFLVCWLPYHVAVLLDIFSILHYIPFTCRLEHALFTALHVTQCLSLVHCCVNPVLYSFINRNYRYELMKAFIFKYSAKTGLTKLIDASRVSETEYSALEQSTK

Biological target: CXCR7 (Homo sapiens, UniProt P25106)
Settings: read-out: EC50 against CXCR7; cited from earlier work

## N=C(N)NCCC[C@H](NC(=O)[C@@H]1CSSC[C@H](NC(=O)[C@H](Cc2ccc3ccccc3c2)NC(=O)[C@H](CCCNC(=N)N)NC(=O)[C@@H](N)CCCNC(=N)N)C(=O)N[C@@H](Cc2ccc(O)cc2)C(=O)N[C@@H](CCCNC(N)=O)C(=O)N[C@@H](CCCCN)C(=O)N[C@H](CCCNC(N)=O)C(=O)N2CCC[C@H]2C(=O)N[C@@H](Cc2ccc(O)cc2)C(=O)N[C@@H](CCCNC(=N)N)C(=O)N[C@@H](CCCNC(N)=O)C(=O)N1)C(N)=O
  EC50: 3.5 nM
